# Antibody variant affinities, Ab-95 light chain, assay 2

Source: Engelhart et al. 2022 (doi:10.1038/s41597-022-01779-4), MIT Lincoln Laboratory and A-Alpha Bio; data file from the FLAb repository.

Binding partner: SARS-CoV-2 spike HR2 peptide, sequence PDVDLGDISGINAS.

Ab-95 is the parent antibody, in scFv form: VH, then a (GGGGS)3 linker, then VL. The heavy chain is unchanged in all variants.
VH: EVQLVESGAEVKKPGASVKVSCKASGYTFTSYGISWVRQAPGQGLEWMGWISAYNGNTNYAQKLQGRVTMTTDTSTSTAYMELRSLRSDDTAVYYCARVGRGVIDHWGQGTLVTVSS
VL: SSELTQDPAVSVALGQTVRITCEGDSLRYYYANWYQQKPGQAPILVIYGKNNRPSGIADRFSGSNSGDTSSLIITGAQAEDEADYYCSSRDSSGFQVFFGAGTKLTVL

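Library AAYL52 holds single substitutions and randomly drawn double and triple substitutions in the CDRs. AlphaSeq pools MATa yeast showing the antibodies with MATalpha yeast showing the peptide. The frequency of each diploid, read from paired DNA barcodes, reflects how well the two displayed proteins bind. Scores were corrected for input abundance and mapped to Kd with protein pairs of known affinity run in the same pool. Mating was done three times.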

Each variant's VL is given in full. Every variant below is changed at F98 of the VL (sequential numbering). Affinities are written as log10 Kd with Kd in nM; a lower number is a better binder. "ND" marks a missing value. The strain was present, yet no cells mated with the target were sequenced in that replicate, which points to weak or no binding. Three control strains display no target. For library AAYL52, 28% of the pairings with them gave a signal, with a median of 3.91 and one signal in twenty below 2.90, so weak values seen in few replicates may be background. In this assay the parent's reference entry averaged 2.31; its copy inside this library read 2.25.

With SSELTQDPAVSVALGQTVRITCEGDMLRYYYANWYQQKPGQAPILVIYGKNNRPSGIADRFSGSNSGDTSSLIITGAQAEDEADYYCSSRDSSGFIVTFGAGTKLTVL the result was ND, ND, ND.
With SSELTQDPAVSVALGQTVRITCEEDSLRYYYANWYQQKPGQAPILVIYPKNNRPSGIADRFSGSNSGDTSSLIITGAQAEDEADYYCSSRDSSGFQVDFGAGTKLTVL the result was 3.87, ND, 4.26.
With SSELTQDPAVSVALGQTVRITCVGDSLRYYYANWYQQKPGQAPILVIYGKNNRPSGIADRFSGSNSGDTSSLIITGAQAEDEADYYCSSRDSSGFIVSFGAGTKLTVL the result was 2.40, 2.15, 2.41.
With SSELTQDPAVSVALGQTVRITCEGDSLRYYYANWYQQKPGQAPILVIYGKNNRPSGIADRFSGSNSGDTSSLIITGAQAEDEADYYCSSRPSSGFQPLFGAGTKLTVL the result was 2.41, 3.05, 2.21.
With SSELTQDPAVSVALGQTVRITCEGDSLRLYYANWYQQKPGQAPILVIYGKNNRPSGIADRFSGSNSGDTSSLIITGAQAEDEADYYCSSRDESGFQVPFGAGTKLTVL the result was 3.83, 3.37, 2.62.
With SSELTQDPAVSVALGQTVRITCEGDSLTYYYANWYQQKPGQAPILVIYGKNNRVSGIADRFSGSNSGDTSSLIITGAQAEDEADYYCSSRDSSGFQVAFGAGTKLTVL the result was 3.47, ND, ND.
With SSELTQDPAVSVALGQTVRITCEGDSLRYYYANWYQQKPGQAPILVIYGKNNAPSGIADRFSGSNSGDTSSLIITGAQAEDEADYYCSSRDSSGGQVKFGAGTKLTVL the result was ND, ND, ND.
With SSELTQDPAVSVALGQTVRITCDGDSLRYYYANWYQQKPGQAPILVIYGPNNRPSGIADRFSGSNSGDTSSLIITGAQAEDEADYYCSSRDSSGFQVVFGAGTKLTVL the result was ND, ND, ND.
With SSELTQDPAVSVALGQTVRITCEGDSLRYYYANWYQQKPGQAPILVIYGKNNRPSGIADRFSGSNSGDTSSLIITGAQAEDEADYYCSSGDSSGFQVDFGAGTKLTVL the result was 3.63, 3.06, 2.67.
With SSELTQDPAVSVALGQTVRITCEGDSLIYYYANWYQQKPGQAPILVIYGKNNRPSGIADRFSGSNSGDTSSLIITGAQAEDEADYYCSSRDSSGFQSTFGAGTKLTVL the result was 4.98, ND, ND.
With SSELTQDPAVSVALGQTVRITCEGDSLRYYYANWYQQKPGQAPILVIYGKNNRPSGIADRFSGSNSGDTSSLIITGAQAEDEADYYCSIRDSRGFQVCFGAGTKLTVL the result was 1.78, 2.18, 1.76.
With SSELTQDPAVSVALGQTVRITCEGASLRYRYANWYQQKPGQAPILVIYGKNNRPSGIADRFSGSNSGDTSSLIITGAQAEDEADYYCSSRDSSGFQVQFGAGTKLTVL the result was 2.07, 2.21, 1.97.
With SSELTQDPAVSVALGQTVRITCEGDSLRYYQANWYQQKPGQAPILVIYGKNNRPLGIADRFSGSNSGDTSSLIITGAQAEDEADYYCSSRDSSGFQVQFGAGTKLTVL the result was 1.75, 1.93, 0.68.
With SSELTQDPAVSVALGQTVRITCEGDSLRYYYANWYQQKPGQAPILVIYGKNNRPSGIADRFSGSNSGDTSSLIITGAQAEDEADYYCSSRKSSGFQVTFGAGTKLTVL the result was 2.93, 3.00, 2.87.

From the list, the first 2 with no signal in any replicate:

VL	log10 Kd, replicates
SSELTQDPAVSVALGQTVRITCEGDMLRYYYANWYQQKPGQAPILVIYGKNNRPSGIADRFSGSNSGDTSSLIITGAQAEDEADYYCSSRDSSGFIVTFGAGTKLTVL	ND, ND, ND
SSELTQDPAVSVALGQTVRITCEGDSLRYYYANWYQQKPGQAPILVIYGKNNAPSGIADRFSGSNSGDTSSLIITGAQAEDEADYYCSSRDSSGGQVKFGAGTKLTVL	ND, ND, ND